PubChem BioAssay AID686996 (Broad Institute, 2013)
The entries are a selection whose mix differs from that of the whole data set. Activity calls are given as the source filed them.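 The calls were made as follows: active = mean inhibition across replicates at least about 35%, with every replicate also reaching that limit (limit read from the data); inconclusive = only one of the two criteria met; inactive = neither criterion met.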

The chains behind the UniProt entries cited, without tags or fusion partners. Where a name states a change or a piece, a line headed by the entry shows the natural chain unless it says otherwise.
UniProt P55212: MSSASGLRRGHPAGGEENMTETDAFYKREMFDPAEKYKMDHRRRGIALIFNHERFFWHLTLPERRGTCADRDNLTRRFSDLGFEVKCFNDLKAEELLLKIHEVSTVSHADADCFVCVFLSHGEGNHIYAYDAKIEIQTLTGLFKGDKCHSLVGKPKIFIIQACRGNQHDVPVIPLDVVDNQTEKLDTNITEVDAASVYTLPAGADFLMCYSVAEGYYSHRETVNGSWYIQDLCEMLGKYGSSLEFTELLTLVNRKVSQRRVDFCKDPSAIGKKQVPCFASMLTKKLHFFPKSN

Target: Caspase-6 (Homo sapiens) (UniProt P55212)
Assay: inhibition of CASP6 peptide cleavage – biochemical, VEID-R110 fluorescence, single point, set 2, primary screen (AID 686996);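 also: 0% = median of neutral control wells and 100% = no fluorescence left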
Conditions: purified caspase-6, Z-VEID-R110 cleavage fluorescence; at 12.5 µM; active compounds read high

SMILES	inhibition
O=C(OC1CN2CCC1CC2)c1ccc(Cl)cc1 (centres undefined)	inactive: -10.5%
CS(=O)(=O)c1ccc(Cl)c(NC(=O)COC(=O)C(O)(c2ccccc2)c2ccccc2)c1	inactive: 0.295%
COc1cc(C(=O)NCC2(N3CCOCC3)CCCCC2)cc(Cl)c1OC(C)C	inactive: 0.587%
O=[As](O)(O)c1cccnc1	inactive: 2.1%
O=[As](O)(c1cccc(O)c1)c1cccc(O)c1	inactive: 0.182%
Nc1cccc2c([As](=O)(O)O)cccc12	active: 57.4%
Cc1ccc(NCCc2c([N+](=O)[O-])cc([N+](=O)[O-])cc2[N+](=O)[O-])cc1	inactive: 0.393%
CCCOP(=S)(Nc1nc(N)cc(=O)[nH]1)OCCC	inactive: 0.563%
CCOP(=O)(Nc1cccc2ccccc12)OCC	inactive: -2.23%
O=P(Nc1nccs1)(Oc1ccccc1)Oc1ccccc1	inactive: -0.481%
CCOP1(=S)c2c(C)nn(CCC#N)c2N=C(c2ccccc2F)N1C (centres undefined)	inactive: 3.49%
Nc1ccccc1[As](=O)(O)c1ccccc1	inactive: 4.61%
O=C(O)COc1ccc([As](=O)(O)O)cc1[N+](=O)[O-]	inactive: -7.02%
NC(=O)Nc1ccc([As](=O)(O)O)cc1	inactive: -0.601%
CCOP1(=S)c2c(C)nn(CCC#N)c2N=C(c2ccc(F)cc2)N1C (centres undefined)	inactive: 1.18%
CN(C(=O)Cc1ccccc1)[C@@H]1CC[C@]2(CCCO2)C[C@H]1N1CCCC1	inactive: -2.2%
N#CCCN(C(=O)COC(=O)C(O)(c1ccccc1)c1ccccc1)c1ccc(F)cc1	inactive: 1.98%
CN(C(=O)Cc1ccc(Cl)c(Cl)c1)[C@H]1CC[C@@]2(CCCO2)C[C@@H]1N1CCCC1	inactive: -1.94%
CN(C)C(=O)c1cc([N+](=O)[O-])cc2c1-c1c(cc([N+](=O)[O-])cc1[N+](=O)[O-])C2=O	inactive: 2.94%
CC1CCC(C(C)C)C(OP(=O)(Nc2ccccn2)c2ccccc2)C1 (centres undefined)	inactive: -0.512%
Cc1ccc(C(=O)OC2CN3CCC2CC3)cc1 (centres undefined)	inactive: -4.88%
CN(C)C1(CNC(=O)c2ccc(S(C)(=O)=O)cc2)CCCCC1	inactive: -4.04%
CCCC1OP(=O)(Nc2ccccc2)OCC1CC (centres undefined)	inactive: 2.99%
O=C(/C=C/c1ccccc1)OC1CN2CCC1CC2 (centres undefined)	inactive: -0.647%
Cc1ccc(S(=O)(=O)N(CCCN)CCCc2c(C)nc(N)[nH]c2=O)cc1	inactive: -0.151%

SMILES	inhibition
Nc1cccc([As](=O)(O)c2ccccc2)c1	inactive: 3.33%
NS(=O)(=O)c1cccc(NC(=O)COC(=O)C(O)(c2ccccc2)c2ccccc2)c1	inactive: 1.78%
O=[As](O)(c1cccs1)c1cccs1	inactive: 1.72%
CCC1=CC2Cc3nc4ccc(Cl)cc4c(N)c3C(C1)C2 (centres undefined)	inactive: 4.04%
CCOP(=O)(Nc1ccc(C)cn1)OCC	inactive: 0.866%
CC(C)(C)C(=O)NC(Sc1ncccn1)C(Cl)(Cl)Cl (centres undefined)	inactive: -2.5%
O=P1(N(CCCl)CCCl)NCCC(C(F)(F)F)O1 (centres undefined)	inactive: -6.42%
COc1ccccc1CNC(=O)COC(=O)C(O)(c1ccccc1)c1ccccc1	inactive: -4.13%
CN(C(=O)Cc1ccc(Cl)c(Cl)c1)C1CCCC[C@@H]1N1CCCC1 (some centres undefined)	inactive: -8.47%
CC(C)/C=N\N=C(\N)N[N+](=O)[O-]	inactive: 0.311%
CN(C(=O)Cc1ccc(Cl)c(Cl)c1)[C@@H]1CCCC[C@H]1N1CCCC1	inactive: 5.43%
COC(=O)C1(C)COP(=O)(N2CCCC2)OC1 (centres undefined)	inactive: 0.775%
COP1(=S)c2c(C)nn(CCC#N)c2N=C(c2ccc(F)cc2)N1C (centres undefined)	inactive: 1.45%
O=C(O)C(=O)c1ccc(N(CCCl)CCCl)cc1	inactive: 1.52%
O=C(Nc1ccncc1[N+](=O)[O-])c1ccc([N+](=O)[O-])cc1[N+](=O)[O-]	inactive: 7.55%
O=C(OC1CN2CCC1CC2)c1cccc([N+](=O)[O-])c1 (centres undefined)	inactive: -7.8%
CCOC(=O)c1ccc(NC(=O)C(C)(CCl)SC)cc1 (centres undefined)	inactive: -3.36%
CCOC(=O)Nc1ccc([As](=O)(O)O)c(O)c1	inactive: 4.93%
O=C(O)C(O)c1ccc(N(CCCl)CCCl)cc1 (centres undefined)	inactive: -0.664%
CC1CCNP(=O)(N(CCCl)CCCl)O1 (centres undefined)	inactive: -48.5%
COP(=O)(OC)N1CC1c1ccccc1 (centres undefined)	inactive: 0.104%
CCCCOc1ccc(C(=O)NCC2(N3CCCCC3)CCCCC2)cc1OC	inactive: 0.839%
CCOC(=O)Nc1cccc([As](=O)(O)O)c1	inactive: -3.74%
O=P(Nc1ccccn1)(c1cccc2ccccc12)c1cccc2ccccc12	inactive: -1.85%
